Results as given in PubChem BioAssay AID693 (University of Pittsburgh Molecular Library Screening Center, 2007).
The entries are a selection whose mix differs from that of the whole data set. The source made the active and inactive calls. No stated cut-off is given here; in the data, active means inhibition above about 34% (passing the limit was not always enough); inactive means the rest.

Amino acid sequences for entries named in this document (tags omitted).
UniProt P53350, whole entry: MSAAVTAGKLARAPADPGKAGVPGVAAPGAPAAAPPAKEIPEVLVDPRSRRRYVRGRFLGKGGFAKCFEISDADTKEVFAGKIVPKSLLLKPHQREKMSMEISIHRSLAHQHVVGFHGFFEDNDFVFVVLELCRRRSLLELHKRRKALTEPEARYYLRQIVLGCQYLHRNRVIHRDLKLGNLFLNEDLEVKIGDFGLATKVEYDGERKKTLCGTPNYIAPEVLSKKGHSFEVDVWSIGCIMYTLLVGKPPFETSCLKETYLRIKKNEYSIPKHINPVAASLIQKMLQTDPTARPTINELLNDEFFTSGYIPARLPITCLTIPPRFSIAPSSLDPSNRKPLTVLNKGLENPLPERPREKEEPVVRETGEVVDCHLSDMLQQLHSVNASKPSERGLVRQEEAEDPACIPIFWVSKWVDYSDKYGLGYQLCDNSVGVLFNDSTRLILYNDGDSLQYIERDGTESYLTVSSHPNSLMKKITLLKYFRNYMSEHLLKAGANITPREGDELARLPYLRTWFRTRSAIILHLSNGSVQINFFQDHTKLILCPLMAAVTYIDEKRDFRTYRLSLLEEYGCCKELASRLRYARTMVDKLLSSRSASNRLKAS

molecular target: Serine/threonine-protein kinase PLK1 (Homo sapiens) (UniProt P53350); experiment: blockers of phosphopeptide binding to Plk1 PBD – biochemical, fluorescence polarization, primary screen (AID 693); conditions: active compounds read high,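 tested at about 20 µM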

Compound | inhibition
N/C(=N\O)c1c(N)no[n+]1[O-] | inactive: -10.9%
c1ccc(CN2CCC(Nc3ccccc3)CC2)cc1 | inactive: -0.66%
CCC(CO)(C(=O)OC1CN2CCC1CC2)c1ccccc1 (stereo not given) | inactive: 12.5%
CCOc1ncccc1C(=O)NCC1(N2CCOCC2)CCCCC1 | inactive: -11.8%
O=C(NCC1(N2CCOCC2)CCCCC1)c1cc2ccccc2o1 | inactive: -25.2%
O=C(OC1CN2CCC1CC2)C1c2ccccc2Oc2ccccc21 (stereo not given) | inactive: -13.2%
COc1ccc(NC2CCN(CCc3ccccc3)CC2)c(OC)c1 | inactive: 21.7%
O=C(NCC1(N2CCOCC2)CCCCC1)c1cc(=O)[nH]c2ccccc12 | inactive: 17.6%
N#CC1(Nc2ccccc2)CCN(CCc2ccccc2)CC1 | inactive: 3.86%
CN1CCC(Nc2cccc(F)c2)CC1 | inactive: 1.68%
